Values quoted from earlier work in patent publication US20100297112A1, “COMBINATIONS COMPRISING DMXAA FOR THE TREATMENT OF CANCER” (Antisoma Research Limited, priority 2005, published 2010).

Tested on: mouse and human liver microsomes
Conditions: diclofenac 100 μM; cited from earlier work

In the case of `O=C(O)Cc1ccccc1Nc1c(Cl)cccc1Cl` [diclofenac], the “inhibition of 6-methylhydroxylation of DMXAA” value is given as over 54% and the “inhibition of glucoronidation of DMXAA” value is given as over 70%.
